Experimental findings from paper PMC7473305 (Frontiers in Immunology, 2020) are described below.

Chains of the proteins cited; added tags and fusions are not shown. Residues count along the entry.
UniProt Q16552, 24-155: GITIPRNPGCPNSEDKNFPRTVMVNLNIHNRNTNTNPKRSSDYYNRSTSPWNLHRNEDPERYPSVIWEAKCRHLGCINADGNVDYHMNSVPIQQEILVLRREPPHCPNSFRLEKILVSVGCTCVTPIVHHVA
UniProt Q96PD4, 31-163: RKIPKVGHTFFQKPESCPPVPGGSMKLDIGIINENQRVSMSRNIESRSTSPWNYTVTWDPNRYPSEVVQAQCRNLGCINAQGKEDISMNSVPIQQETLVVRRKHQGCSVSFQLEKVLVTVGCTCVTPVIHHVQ

The target in experiment [1] is T1, human IL-17A (generated at UCB) (Homo sapiens, UniProt Q16552).
T1 construct: interleukin-17A, human; The expression method is told for the neutralization bioassay; Residues of the TEV site may be left at the C-terminus; also called Interleukin-17A; source: generated at UCB; CHO-S XE cells, transient, purified (Protein A, Fc removed with TEV protease, SEC of the dimer); not shown: Fc (human IgG1), C-terminal, cleaved
Briefly: SPR; Biacore T200, CM5 chip; Fab captured on immobilised anti-human F(ab')2; cytokine titrated over it; HBS-EP pH 7.4, 25°C. The note with it: both partners purified. On the technique in general: Surface plasmon resonance follows binding to a sensor surface in real time, without labels.

The target of experiment [2] is T2, human IL-17F (R&D Systems) (Homo sapiens, UniProt Q96PD4).
T2 construct: interleukin-17F, human; Used in SPR; the functional rows are written on this molecule; source: bought: R&D Systems
Described as above. The note with it: both partners purified.

B1: 496.g1 Fab (Fab, V domains shown)
VH: EVQLVESGGGLVQPGGSLRLSCAASGFTFSDYNMAWVRQAPGKGLEWVATITYEGRNTYYRDSVKGRFTISRDNAKNSLYLQMNSLRAEDTAVYYCASPPQYYEGSIYRLWFAHWGQGTLVTVSS
VL: AIQLTQSPSSLSASVGDRVTITCRADESVTTLMHWYQQKPGKAPKLLIYLVSNRESGVPSRFSGSGSGTDFTLTISSLQPEDFATYYCQQTWSDPWTFGQGTKVEIK
As usually defined, the koff is the rate constant with which the complex falls apart. Read a high koff as fast dissociation. By kon is commonly meant the second-order rate constant of association. The low end stands for slow association, the high end for fast association. Consider B1, for which, in experiment [1], the koff was determined as 5.63e-05 s⁻¹ and the kon was 1.93e+06 M⁻¹ s⁻¹. In experiment [2], this molecule showed a koff of 0.00603 s⁻¹ and a kon of 4e+06 M⁻¹ s⁻¹.
